Data taken from PMC11410929, “Biochemical and crystallographic studies of L,D-transpeptidase 2 from Mycobacterium tuberculosis with its natural monomer substrate” (Communications Biology, 2024).

Target: DAAO and HRP
Assay: Transpeptidase interference assay (no LdtMt2, D-Ala as substrate)
Assay type: biochemical
Conditions: for Transpeptidase interference assay pIC50 (mean ± SD): DAAO 2 U/mL, HRP 2 U/mL, FAD 40 µM, Amplex red 10 µM, 30 min rt, then D-alanine 500 nM, pH 8.0, quadruplicate
Protocol: The transpeptidase interference assay was performed as described above, with the modification that the LdtMt2 mixture was replaced by 5 µL assay buffer, and the substrate was replaced by D-Ala (500 nM final concentration). Data were analysed using Prism 10 (GraphPad).
Figure S14. Dose-response curves of the transpeptidase interference assay with compounds
14-24. The specified inhibitors were incubated with DAAO (2 U/mL), HRP (2 U/mL), FAD (40 μM) and
Amplex red (10 μM) in 50 mM sodium phosphate pH 8.0 with 100 mM NaCl at room temperature for 30
minutes, after which time D-alanine (500 nM) was added. The pIC50 values and compound structures
See Methods for experimental details. Individual data points are shown.

Structure (SMILES) | Transpeptidase interference assay pIC50 (mean ± SD) | Interference with the DAAO/HRP assay (inhibition of DAAO and HRP, in words)
N#Cn1c(-c2cnc(-c3cccs3)nc2)nc2ccccc21 | < 4.0 | –
O=c1c2cc(Cl)c(Cl)cc2sn1CCO | 5.0 ± 0.2 | cause interference
NC(=O)C=CC(=O)Nc1ccc(Cl)cc1 | < 4.0 | –
O=C1C=CC(=O)N1c1ccccc1 | < 4.0 | –
